Results as given in article PMC4387075 (Neuropharmacology, 2015).

Amino acid sequences for entries named in this document (tags omitted). Residues count along the entry.
UniProt P23385, 19-1199: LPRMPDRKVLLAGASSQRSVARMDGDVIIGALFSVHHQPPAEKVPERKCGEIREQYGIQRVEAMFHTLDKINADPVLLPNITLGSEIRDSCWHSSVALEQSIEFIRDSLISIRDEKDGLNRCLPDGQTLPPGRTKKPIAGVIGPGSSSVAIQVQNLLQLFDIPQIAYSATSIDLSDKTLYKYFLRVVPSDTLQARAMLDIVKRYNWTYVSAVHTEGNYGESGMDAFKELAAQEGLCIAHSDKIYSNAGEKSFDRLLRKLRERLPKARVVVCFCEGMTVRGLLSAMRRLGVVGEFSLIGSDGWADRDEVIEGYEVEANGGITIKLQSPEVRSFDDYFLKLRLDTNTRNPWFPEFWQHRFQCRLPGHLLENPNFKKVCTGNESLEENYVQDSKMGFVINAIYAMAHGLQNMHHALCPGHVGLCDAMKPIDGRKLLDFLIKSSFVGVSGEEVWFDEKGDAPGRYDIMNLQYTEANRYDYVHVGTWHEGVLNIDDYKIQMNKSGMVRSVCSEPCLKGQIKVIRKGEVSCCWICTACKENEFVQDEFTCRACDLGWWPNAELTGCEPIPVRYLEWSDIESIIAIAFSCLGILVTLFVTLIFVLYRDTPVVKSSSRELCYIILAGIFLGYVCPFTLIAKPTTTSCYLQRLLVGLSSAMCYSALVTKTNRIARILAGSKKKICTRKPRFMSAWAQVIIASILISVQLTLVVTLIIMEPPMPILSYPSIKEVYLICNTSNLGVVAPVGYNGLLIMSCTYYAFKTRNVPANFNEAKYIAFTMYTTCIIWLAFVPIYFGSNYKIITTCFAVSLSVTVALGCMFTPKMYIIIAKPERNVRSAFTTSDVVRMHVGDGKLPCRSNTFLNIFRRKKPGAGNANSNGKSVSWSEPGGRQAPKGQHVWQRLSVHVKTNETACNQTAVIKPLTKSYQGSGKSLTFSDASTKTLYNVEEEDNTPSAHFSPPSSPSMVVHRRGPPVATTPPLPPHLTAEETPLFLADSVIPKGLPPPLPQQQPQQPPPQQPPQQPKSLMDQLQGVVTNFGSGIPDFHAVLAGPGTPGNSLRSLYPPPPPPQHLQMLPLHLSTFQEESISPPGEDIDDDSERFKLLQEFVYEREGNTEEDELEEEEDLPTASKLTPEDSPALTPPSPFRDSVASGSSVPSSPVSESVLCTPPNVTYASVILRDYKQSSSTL

Target: mGlu1 receptors (Rattus norvegicus, UniProt P23385)
Assay: PI hydrolysis
Format: cell-based
Details: agonists 100 μM; JNJ16259685 300 μM, CPCCOEt 200 μM, MPEP 10 μM

7-(Hydroxyimino)cyclopropa[b]chromen-1a-carboxylate ethyl ester [CPCCOEt]
effect of antagonist on PI hydrolysis stimulated by quisqualate, DHPG and ACPD: significantly decreased
